Here are results for two molecules from US7807162B2, “Single domain VHH antibodies against von Willebrand factor” (Ablynx N.V., priority 2005, dated 2010).

Data set [1] is described as follows: Stability at elevated temperatures: concentration of supernatant (OD280) after heating. The data set is classed as physicochemical.
For data set [2], the target named is T1, vWF (Homo sapiens, UniProt P04275). In words: Binding of nanobodies to vWF in ELISA.
In the next data set the target is T2, pig vWF (Sus scrofa, UniProt Q28833).
T2 construct: plasma (dog, pig, human, baboon and cynomologues monkey) was applied; from tissue; host or cells: pig plasma
In words: Cross-reactivity ELISA with vWF from plasma of other species (pig). The data set is classed as binding. Conditions: nanobody 10 μg/ml. As for the experimental part: (§1) A microtiterplate was coated with mouse anti-myc at 1/1000 overnight at 4° C. The plate was washed with PBS-Tween and blocked for two hours at room temperature with PBS-1% casein. After washing, the nanobodies were applied at a concentration of 10 μg/ml in PBS. After a one hour incubation period, the plates were washed and plasma (dog, pig, human, baboon and cynomologues monkey) was applied starting at a five-fold dilution and making further two-fold dilutions in PBS. The plates were incubated for 1 hour at room temperature. The plates were washed and polyclonal anti-vWF-HRP (DAKO) was applied at a 2000-fold dilution for one hour at room temperature. The plates were washed and ABTS/H2O2 substrate was applied. The OD 405 nm was measured.
Background: ELISA stands for enzyme-linked immunosorbent assay.

The target of data set [3] is T1, vWF. In words: Stability at elevated temperatures: binding in ELISA to vWF after heating. The data set is classed as physicochemical. The settings on record: 1 hour at different temperatures. As for the experimental part: A stock solution of nanobodies at a concentration of 200 μg/ml in PBS was prepared and divided into several tubes. Each tube containing nanobody was incubated at different temperatures for 1 hour, then cooled at room temperature for 2 hours and put at 4° C. overnight. The next day, the samples were centrifuged for 30 minutes at 13000 rpm, and the supernatant was tested for OD280 nm. The concentration of supernatants were measured spectrophotometrically and expressed as a percentage of the concentration at room temperature.
The supernatants were also tested in ELISA for binding to vWF as described above in Example 3.
The supernatants were tested in ELISA for binding to vWF as described above in Example 3. The supernatants were applied starting at a 1/100 dilution and 1/5 dilutions were made in PBS. Results are shown in FIG. 12 (12B6), FIG. 13 (12A2) and FIG. 14 (12A5).

In another data set the test system is baboon vWF. In words: Cross-reactivity ELISA with vWF from plasma of other species (baboon). The settings on record: nanobody 10 μg/ml. The data set is classed as binding. The procedure:
as §1

Data set [4] has as its target T1, vWF. In words: Analysis in BIACORE for binding to vWF. As for the experimental part: vWF was covalently bound to the sensor chip surface via amine coupling. The CM5 surface of the chip was activated by the injection of EDC/NHS (1:1 mix of 0.4 M 1-ethyl-3-(3-dimethylaminopropyl)-carbodiimide and 0.1 M N-hydroxysuccinimide in water) for 7 minutes. Upon activation vWF was injected until an increase of 6000 response units was detected. The excess of reactive groups was deactivated with 1 M Ethanolamine-HCl (pH 8.5) for 7 minutes. The flowrate was kept constant during the immobilization procedure at 5 ul/min. The eluent buffer was 0.01 M HEPES (pH 7,4) with 0.15 M NaCl, 3 mM EDTA and 0.005% Surfactant P20.
The nanobodies 12B6 and 12A5 and their homologue proteins were analysed in BIACORE on vWF at a concentration of the nanobody of 5 μg/ml as shown in FIGS. 4 and 5.
From the set of curves that were generated for each nanobody, only those curves where equilibrium was reached, were used to derive the KD value via steady state affinity.
In general terms: SPR reads the build-up and loss of mass on a sensor chip optically.

The target in data set [5] is T1, vWF. In words: Cross-reactivity ELISA with vWF from plasma of other species (human). The data set is classed as binding. Set-up: plasma (dog, pig, human, baboon and cynomologues monkey) was applied; from tissue; host or cells: human plasma. The settings on record: nanobody 10 μg/ml. The procedure:
as §1

In the next data set the test system is cynomologues monkey vWF. Briefly: Cross-reactivity ELISA with vWF from plasma of other species (cynomologues monkey). The settings on record: nanobody 10 μg/ml. The data set is classed as binding. The procedure:
as §1

Where [6] appears, read: real KD determination, range of nanobody concentrations, Table 14.

B1: 12A2H4: humanised 12A2 nanobody, SEQ ID NO: 92 (protein)
VHH: EVQLVESGGGLVQPGGSLRLSCAASGRTFSYNPMGWFRQAPGKGRELVAAISRTGGSTYYPDSVEGRFTISRDNAKRSVYLQMNSLRAEDTAVYYCAAAGVRAEDGRVRTLPSEYTFWGQGTQVTVSS
As for B1, the “Concentration after heating at increasing temperatures” value was found to be 100% in data set [1] (37° C., percentage of the concentration at room temperature, Table 30); 101% in data set [1] (50° C., percentage of the concentration at room temperature, Table 30); 100% in data set [1] (60° C., percentage of the concentration at room temperature, Table 30); 99% in data set [1] (70° C., percentage of the concentration at room temperature, Table 30); 90% in data set [1] (80° C., percentage of the concentration at room temperature, Table 30); 83% in data set [1] (90° C., percentage of the concentration at room temperature, Table 30). The “Concentration after heating at increasing temperatures” value in data set [1] (RT, OD280 nm concentration of supernatant as percentage of the concentration at room temperature, Table 30) was determined as 100%. For the same molecule, the “binding to vWF in ELISA” value with vWF [2] was “bind very well”.

B2: 12B6: anti-vWF nanobody, SEQ ID NO: 62 (protein)
VHH: QVQLVESGGGLVQAGGALRLSCAASGRTFSYNPMGWFRQAPGKERDVVAAISRTGGSTYYARSVEGRFTISRDNAKRMVYLQMNALKPEDTAVYYCAAAGVRAEDGRVRTLPSEYNFWGQGTQVTVSS
For the molecule B2, the “Concentration after heating at increasing temperatures” value in data set [1] (37° C., Table 16) is on record as 97; in data set [1] (37° C., Table 20), 97; in data set [1] (37° C., percentage of the concentration at room temperature, Table 26), 97%; in data set [1] (50° C., Table 16), 100; in data set [1] (50° C., Table 20) it was 100; in data set [1] (50° C., percentage of the concentration at room temperature, Table 26) it was 100%. For the same molecule, the “Concentration after heating at increasing temperatures” value is 104 in data set [1] (60° C., Table 16); 104 in data set [1] (60° C., Table 20); 104% in data set [1] (60° C., percentage of the concentration at room temperature, Table 26); 94 in data set [1] (70° C., Table 16); 94 in data set [1] (70° C., Table 20); 94% in data set [1] (70° C., percentage of the concentration at room temperature, Table 26). Also, the “Concentration after heating at increasing temperatures” value in data set [1] (80° C., Table 16) is on record as 91; in data set [1] (80° C., Table 20) it was 91; in data set [1] (80° C., percentage of the concentration at room temperature, Table 26), 91%; in data set [1] (90° C., Table 16) it was 68; in data set [1] (90° C., Table 20), 68; in data set [1] (90° C., percentage of the concentration at room temperature, Table 26), 68%. The “Concentration after heating at increasing temperatures” value is 100 in data set [1] (RT, Table 16); 100 in data set [1] (RT, Table 20); 100% in data set [1] (RT, OD280 nm concentration of supernatant as percentage of the concentration at room temperature, Table 26). Moreover, in the data set with pig vWF, the “cross-reactivity with pig vWF” value is on record as “cross-reactive”. The “stability at elevated temperatures (binding to vWF in ELISA after heating)” value in the data set with vWF [3] is listed as “very stable at elevated temperatures”. Besides, the “cross-reactivity with baboon vWF” value in the data set with baboon vWF is listed as “cross-reactive”. Moreover, the Koff in the data set with vWF [4] (estimated value, Table 13) is 0.00597 s⁻¹; in the data set with vWF [4] (setting [6]) it was 0.01003 s⁻¹. Besides, the Kon in the data set with vWF [4] (estimated value, Table 13) was 2.55e+06 M⁻¹ s⁻¹; with vWF [4] (setting [6]) it was 2.28e+06 M⁻¹ s⁻¹. Besides, the “K-on and K-off rates compared among homologue nanobodies” value with vWF [4] (nanobody 5 μg/ml) is “best K-on rate”. For the same molecule, the “cross-reactivity with human vWF” value in the data set with vWF [5] is “cross-reactive”. For the same molecule, in the data set with cynomologues monkey vWF, the “cross-reactivity with cynomologues monkey vWF” value was “cross-reactive”.
